# Measured affinities in a library of Ab-14 heavy chain variants

The target is the same throughout: PDVDLGDISGINAS, from the HR2 region of SARS-CoV-2 spike.

Parent: Ab-14, a human scFv built as VH, three GGGGS repeats, VL. Only the CDRs of the heavy chain vary.
VH: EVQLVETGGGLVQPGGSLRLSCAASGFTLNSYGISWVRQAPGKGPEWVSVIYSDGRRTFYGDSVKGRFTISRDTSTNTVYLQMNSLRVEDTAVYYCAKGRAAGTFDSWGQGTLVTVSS
VL: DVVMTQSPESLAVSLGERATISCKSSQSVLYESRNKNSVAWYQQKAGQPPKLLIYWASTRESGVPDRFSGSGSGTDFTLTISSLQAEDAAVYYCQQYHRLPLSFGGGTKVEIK

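The variants were designed computationally from a first round of random CDR variants and then made and measured. Their group label is 14H_En_HC (En: ensemble of fine-tuned language models; HC: hill climbing; a sequence that several methods proposed may carry one label only). The scFvs were displayed on barcoded MATa yeast, the peptide on MATalpha yeast. Binding brings cells together so that they mate, and sequencing counts the barcode pairs among the diploids. Read counts were normalised to the haploid input and turned into Kd by a linear fit to BCL2-family pairs of known affinity, for each replicate. Mating was done six times.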

Variants are written as CDR1, CDR2 and CDR3 of the heavy chain (limits as in the source). Parent: GFTLNSYGIS, VIYSDGRRTFYGDSVK, GRAAGTFDS.
Numbers give log10(Kd / nM), so 0 is 1 nM and 3 is 1 µM. Smaller is tighter.
A mean of the replicates is given; it leaves out those without a signal.
"n.d." means that the variant was in the library but no mating with the target was seen in that replicate; the authors take this as a sign of poor binding, and no number exists.
Nonspecific signal, from three strains lacking the peptide, appeared in 1% of pairings of all heavy chain designs, centred on 2.08 (5% of these signals below 0.84); values are not corrected for it. Also given: how often the same scFv was detected with the empty control strains, with their mean in brackets.
A sequence measured in both rounds can read differently, since the two assays cover different ranges.
The parent sequence was in this pool as ten entries: three were never detected, three once, and four in most replicates, with averages from 0.34 to 2.37.
In the paper, a design with two or fewer of six values counts as a poor binder.

{"CDR-H1": "GFDLNEYGIS", "CDR-H2": "VIYADGRRTAYSDSVK", "CDR-H3": "GEAAGFFDV", "log10 Kd, replicates": "n.d. / 3.54 / n.d. / n.d. / n.d. / n.d.", "mean log10 Kd (nM)": "3.54", "control signals": "1/18 (0.49)"}
{"CDR-H1": "GFDLDEYGIS", "CDR-H2": "VIYADGRRTFYADSVK", "CDR-H3": "GELAGTFDI", "log10 Kd, replicates": "-0.18 / -0.37 / -0.57 / -0.73 / -0.88 / -0.26", "mean log10 Kd (nM)": "-0.50", "control signals": "0/18"}
{"CDR-H1": "GFDLNEYGIS", "CDR-H2": "VIYADGKRTFYTDNVK", "CDR-H3": "GQNAGTFDS", "log10 Kd, replicates": "n.d. / n.d. / 0.07 / 0.44 / 1.23 / 2.16", "mean log10 Kd (nM)": "0.97", "control signals": "0/18"}
{"CDR-H1": "GFDLNEYGIS", "CDR-H2": "VIYADGVRTFYADSVK", "CDR-H3": "GQAAGTFTL", "log10 Kd, replicates": "n.d. / n.d. / n.d. / n.d. / n.d. / n.d.", "mean log10 Kd (nM)": "n.d.", "control signals": "0/18"}
{"CDR-H1": "GFDLNEYGIS", "CDR-H2": "VIYADGRRTAYIDSVK", "CDR-H3": "GEVAGTFDS", "log10 Kd, replicates": "-0.38 / -0.76 / -0.98 / -0.98 / -0.81 / -0.45", "mean log10 Kd (nM)": "-0.73", "control signals": "0/18"}
{"CDR-H1": "GFNLNEYGIS", "CDR-H2": "VIYADGKRTFYADSVK", "CDR-H3": "GQVAGTFDM", "log10 Kd, replicates": "-0.57 / -0.35 / -0.49 / -1.07 / -0.18 / -1.21", "mean log10 Kd (nM)": "-0.64", "control signals": "0/18"}
{"CDR-H1": "GFDLNEYGIS", "CDR-H2": "VIYADGRRTFYSDSVK", "CDR-H3": "GEHAGTFDV", "log10 Kd, replicates": "-0.01 / -0.57 / -0.93 / -0.80 / -0.78 / 0.01", "mean log10 Kd (nM)": "-0.51", "control signals": "0/18"}
{"CDR-H1": "GFDLDEYGIS", "CDR-H2": "VIYADGKRTFYADSVK", "CDR-H3": "GEAAGTFDI", "log10 Kd, replicates": "-0.18 / -0.24 / 0.01 / -0.68 / -0.53 / -0.07", "mean log10 Kd (nM)": "-0.28", "control signals": "0/18"}
{"CDR-H1": "GFDLNEYGIS", "CDR-H2": "VIYADGRRTFYIDSVK", "CDR-H3": "GNQAGTFDS", "log10 Kd, replicates": "-0.20 / -0.65 / -0.27 / -0.36 / 0.15 / -0.03", "mean log10 Kd (nM)": "-0.23", "control signals": "0/18"}
{"CDR-H1": "GFTLDEYGIS", "CDR-H2": "VIYADGRRTAYSDSVK", "CDR-H3": "GSTAGTFDV", "log10 Kd, replicates": "-0.40 / 0.02 / 0.03 / -0.47 / -0.29 / -0.41", "mean log10 Kd (nM)": "-0.26", "control signals": "1/18 (1.61)"}
{"CDR-H1": "GFDLNEYGIS", "CDR-H2": "VIYADGKRTSYADSVK", "CDR-H3": "GQNAGTFDQ", "log10 Kd, replicates": "0.46 / 0.07 / 0.01 / -0.20 / 0.30 / 0.07", "mean log10 Kd (nM)": "0.12", "control signals": "1/18 (1.74)"}
{"CDR-H1": "GFDLNEYGIS", "CDR-H2": "VIYADGVRTQYIDSVK", "CDR-H3": "GETAGTFDV", "log10 Kd, replicates": "-0.21 / 0.47 / 0.48 / -0.46 / 0.03 / -0.01", "mean log10 Kd (nM)": "0.05", "control signals": "0/18"}
{"CDR-H1": "GFDLNEYGIS", "CDR-H2": "VIYADGVRTAYIDSVK", "CDR-H3": "GEAAGTFDL", "log10 Kd, replicates": "0.51 / 0.24 / 0.74 / 0.48 / -0.33 / 0.66", "mean log10 Kd (nM)": "0.38", "control signals": "0/18"}
{"CDR-H1": "GFDLNEYGIS", "CDR-H2": "VIYADGRRTFYIDSVK", "CDR-H3": "GETAGTFDV", "log10 Kd, replicates": "0.10 / 0.21 / 0.12 / -0.66 / -0.13 / 0.04", "mean log10 Kd (nM)": "-0.05", "control signals": "0/18"}
{"CDR-H1": "GFDLNEYGIS", "CDR-H2": "VIYADGRRTFYADSVK", "CDR-H3": "GNQAGTFDM", "log10 Kd, replicates": "-0.20 / -0.57 / -0.67 / -0.83 / -0.63 / -0.59", "mean log10 Kd (nM)": "-0.58", "control signals": "0/18"}
{"CDR-H1": "GFDLNEYGIS", "CDR-H2": "VIYADGMRTFYSDSVK", "CDR-H3": "GQSAGTFDA", "log10 Kd, replicates": "0.19 / 0.23 / -0.51 / -0.50 / -0.98 / -0.43", "mean log10 Kd (nM)": "-0.33", "control signals": "0/18"}
{"CDR-H1": "GFDLNEYGIS", "CDR-H2": "VIYADGMRTFYSDSVK", "CDR-H3": "GQLAGTFDV", "log10 Kd, replicates": "-0.41 / -0.25 / -0.45 / -0.45 / -0.16 / -0.34", "mean log10 Kd (nM)": "-0.34", "control signals": "0/18"}
{"CDR-H1": "GFDLNEYGIS", "CDR-H2": "VIYADGKRTFYTDSVK", "CDR-H3": "GANAGTFDV", "log10 Kd, replicates": "-0.44 / -0.71 / -0.94 / -1.02 / -0.91 / -0.95", "mean log10 Kd (nM)": "-0.83", "control signals": "0/18"}
{"CDR-H1": "GFDLNEYGIS", "CDR-H2": "VIYADGRRTAYKDSVK", "CDR-H3": "GEVAGTFDV", "log10 Kd, replicates": "-0.41 / -0.69 / -0.31 / -0.36 / -0.88 / -0.67", "mean log10 Kd (nM)": "-0.56", "control signals": "1/18 (1.26)"}

The 2 strongest on average among those seen in every replicate, once more:

{"CDR-H1": "GFDLNEYGIS", "CDR-H2": "VIYADGKRTFYTDSVK", "CDR-H3": "GANAGTFDV", "log10 Kd, replicates": "-0.44 / -0.71 / -0.94 / -1.02 / -0.91 / -0.95", "mean log10 Kd (nM)": "-0.83", "control signals": "0/18"}
{"CDR-H1": "GFDLNEYGIS", "CDR-H2": "VIYADGRRTAYIDSVK", "CDR-H3": "GEVAGTFDS", "log10 Kd, replicates": "-0.38 / -0.76 / -0.98 / -0.98 / -0.81 / -0.45", "mean log10 Kd (nM)": "-0.73", "control signals": "0/18"}

The measurements come from Li et al. 2023 (doi:10.1038/s41467-023-39022-2) through the FLAb antibody collection.